Data from publication PMC5522753 (Bioorganic & medicinal chemistry letters, 2016).

Tested on: B and T cells from healthy donors
Assay: Differential cytotoxicity: normal B and T-lymphocytes versus CLL cells
Conditions: Figure 2

CN1C(=O)N[C@H]2[C@@H]3NC(=O)c4cc(Cl)c(Br)n4[C@@H]3C[C@]21O [Compound 3, 14-chloro AglA]
toxicity toward B and T cells from healthy donors compared to CLL cells: selectivity for CLL leukemia cells was even more apparent
